Values of other authors as cited in US4322416A (dated 1982).

Test system: aromatase
Conditions: microsomal enzyme preparations from human placenta; cited from earlier work

For `CCC1(c2ccc(N)cc2)CCC(=O)NC1=O` (stereo not shown) [aminoglutethimide], the “identified as aromatase inhibitor” value is given as “identified as aromatase inhibitors”.
